Columns and labels:
[1] = test system: Human breast carcinoma cell line MCF-7; experiment: SRB cytotoxicity assay, MCF-7; assay type: cell-based; settings: read-out: IC50 (nM) MCF-7; Table 2; as described in Example 48
Procedure: (§1) Compounds of the invention may be screened for cytotoxicity using conventional assays well known to those skilled in the art. For example, cytotoxicity of the compounds may be determined by the SRB assay as disclosed in Skehan et al., J. Natl. Cancer Inst. 82:1107-1112 (1990), which is incorporated herein by reference. In the SRB assay, the following cultured cells are trypsinized, counted and diluted to the following concentrations per 100 μl with growth medium: MCF-7, 5000; NCI/ADR-Res, 7500; NCI-H460, 5000; A549, 5000; Skov3, 7500; and SF-268, 7500. The cells are seeded at 100 μl/well in 96-well microtiter plates. […] The amount of bound dye is determined by OD 515 nm, which correlates to the total cellular protein contents. The data is analyzed using standard statistical methodologies (such as those available with the software sold as KALEIDA GRAPH® by Synergy Software of Reading, Pa.) and the IC50s are calculated. […]
(§2) Tumor cells were seeded in 100 μl at 5000 (MCF-7), 7500 (NCI/ADR), 5000 (A549) and 7500 (SKOV3) cells per well in 96-well plates. […] The absorbance was measured at 515 nm using a 96-well microtiter plate reader (Spectra Max 250, Molecular Devices). The IC50 values were calculated using a KaleidaGraph program. […]

[2] = test system: Human non-small cell lung cancer cell line A549; experiment: SRB cytotoxicity assay, A549; assay type: cell-based; settings: read-out: IC50 (nM) A549; Table 2; as described in Example 48
Procedure: as §1, §2

[3] = test system: multi-drug resistant breast carcinoma cell line NCI/ADR; experiment: SRB cytotoxicity assay, NCI/ADR; assay type: cell-based, human; settings: read-out: IC50 (nM) NCI/ADR; Table 2; as described in Example 48
Procedure: as §1, §2

[4] = test system: human ovarian cancer cell line SKOV-3; experiment: SRB cytotoxicity assay, SKOV3; assay type: cell-based; settings: read-out: IC50 (nM) Skov; Table 2; as described in Example 48
Procedure: as §1, §2

C/C(=C\c1ccccn1)[C@@H]1C/C=C(/C(F)(F)F)C/C=C/[C@H](C)[C@H](O)[C@@H](C)C(=O)C(C)(C)[C@@H](O)CC(=O)O1
IC50 [1]: 4.3 nM
IC50 [2]: 15 nM
IC50 [3]: 19 nM
IC50 [4]: 9.6 nM

From patent US20040152708A1, “Trans-9,10-dehydroepothilone C and D, analogs thereof and methods of making the same” (priority 2002, published 2004)
